Assay results as given in patent US20160166648A1, “Treatment of Multiple Sclerosis With Combination of Laquinimod and Interferon-Beta” (Teva Pharmaceutical Industries, Ltd., priority 2011, published 2016).

Test system: MOG induced EAE in C57 BI mice
Assay: Interferon-β s.c. daily alone or in combination with laquinimod in chronic MOG induced EAE
Type: in vivo, C57BL/6 mice
Settings: for Activity compared to Laquinimod: Table 6; for % inhibition 1 (incidence) / % inhibition 2 (MMS) / % inhibition 3 (GMS); Activity / % inhibition 3 (GMS): compared to vehicle
[1] = IFN-β 50,000 IU/mouse SC QD, listed as IFN beta
[2] = IFN-β 500,000 IU/mouse SC QD, Day 1 to 7 (prophylactic)
[3] = IFN-β 500,000 IU/mouse SC QD, listed as IFN beta
[4] = IFN-β 500,000 IU/mouse, Day 8 to 30 (therapeutic)

B1: Interferon beta-1a (protein, UniProt P01574 22-187, looked up)
Interferon beta: MSYNLLGFLQRSSNFQCQKLLWQLNGRLEYCLKDRMNFDIPEEIKQLQQFQKEDAALTIYEMLQNIFAIFRQDSSSTGWNETIVENLLANVYHQINHLKTVLEEKLEKEDFTRGKLMSSLHLKRYYGRILHYLKAKEYSHCAWTIVRVEILRNFYFINRLTGYLRN
notes: Interferon beta-1a (IFN-β) (Rebif®, 44 μg/0.5 ml/syringe)
Activity compared to Laquinimod (IFN beta 50,000 IU/mouse): 15%
Activity compared to Laquinimod (IFN beta 500,000 IU/mouse): 55%
GMS value (group mean score) (IFN-β 50,000 IU/mouse SC QD): 1.7 ± 1.0
Incidence (IFN-β 50,000 IU/mouse SC QD): 11/13
MMS value (mean maximal score) (IFN-β 50,000 IU/mouse SC QD): 2.6 ± 1.4
Mean Duration (IFN-β 50,000 IU/mouse SC QD): 15.4 ± 7.8 days
Mean Onset (IFN-β 50,000 IU/mouse SC QD): 14.9 ± 7.3 days
Mortality (IFN-β 50,000 IU/mouse SC QD): 0/13
% inhibition 1 (incidence) (IFN-β 50,000 IU/mouse SC QD): 15.4%
% inhibition 2 (MMS) (IFN-β 50,000 IU/mouse SC QD): 18.8%
% inhibition 3 (GMS); Activity (IFN-β 50,000 IU/mouse SC QD): 15%
% inhibition 3 (GMS); Activity [1]: 15%
GMS value (group mean score) [1]: 1.7
GMS value (group mean score) (IFN-β 500,000 IU/mouse SC QD): 0.9 ± 0.7
Incidence (IFN-β 500,000 IU/mouse SC QD): 12/13
MMS value (mean maximal score) (IFN-β 500,000 IU/mouse SC QD): 1.7 ± 1.0
Mean Duration (IFN-β 500,000 IU/mouse SC QD): 13.9 ± 6.1 days
Mean Onset (IFN-β 500,000 IU/mouse SC QD): 14.7 ± 5.1 days
Mortality (IFN-β 500,000 IU/mouse SC QD): 0/13
GMS value (group mean score) [2]: 1.7 ± 0.4
Incidence [2]: 13/13
MMS value (mean maximal score) [2]: 3.1 ± 0.3
Mean Duration [2]: 17.5 ± 1.7 days
Mean Onset [2]: 12.9 ± 1.3 days
Mortality [2]: 0/13
% inhibition 1 (incidence) [2]: 0%
% inhibition 2 (MMS) [2]: 3.1%
% inhibition 3 (GMS) [2]: 15.0%
% inhibition 1 (incidence) (IFN-β 500,000 IU/mouse SC QD): 7.7%
% inhibition 2 (MMS) (IFN-β 500,000 IU/mouse SC QD): 46.9%
% inhibition 3 (GMS); Activity (IFN-β 500,000 IU/mouse SC QD): 55%
% inhibition 3 (GMS); Activity [3]: 55%
GMS value (group mean score) [3]: 0.9
GMS value (group mean score) [4]: 1.3 ± 1.1
Incidence [4]: 10/13
MMS value (mean maximal score) [4]: 2.3 ± 1.7
Mean Duration [4]: 12.2 ± 8.7 days
Mean Onset [4]: 16.5 ± 8.4 days
Mortality [4]: 0/13
% inhibition 1 (incidence) [4]: 23.1%
% inhibition 2 (MMS) [4]: 28.1%
% inhibition 3 (GMS) [4]: 35.0%
